The assay has as its target D(2) dopamine receptor (Rattus norvegicus, UniProt P61169). Briefly: Displacement of [3H]Spiperone from rat dopamine D2L receptor expressed in HEK293 cells. The class given is cell-based. (Loss of bound radioactivity is the signal in a displacement assay; it reports binding, not function.)

Protein sequences, listed by entry. Tags and fused reporters are not part of them.
UniProt P61169, whole entry: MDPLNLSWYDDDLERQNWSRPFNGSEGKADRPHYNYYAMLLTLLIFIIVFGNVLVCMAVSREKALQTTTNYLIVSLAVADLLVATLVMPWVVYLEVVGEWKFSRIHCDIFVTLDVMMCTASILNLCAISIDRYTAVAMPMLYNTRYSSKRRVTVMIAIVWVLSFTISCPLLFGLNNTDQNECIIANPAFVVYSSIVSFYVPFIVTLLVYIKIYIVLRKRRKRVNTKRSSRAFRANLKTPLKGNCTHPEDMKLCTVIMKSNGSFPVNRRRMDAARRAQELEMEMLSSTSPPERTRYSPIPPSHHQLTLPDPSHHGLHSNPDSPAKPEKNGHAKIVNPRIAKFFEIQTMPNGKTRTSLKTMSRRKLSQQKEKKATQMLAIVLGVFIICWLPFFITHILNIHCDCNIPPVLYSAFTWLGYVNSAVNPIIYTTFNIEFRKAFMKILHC

Each structure is given as a SMILES string.

`CCCN(CCN1CCN(c2ccccc2)CC1)[C@H]1CCc2c(O)cccc2C1` displayed a Ki of 26 nM.

As for `CCCN(CCN1CCN(c2ccccc2)CC1)[C@@H]1CCc2c(O)cccc2C1`, affinity was put at a Ki of 238 nM.

Broadly, the Ki is the equilibrium dissociation constant of an inhibitor or competing ligand from its target. Read a high Ki as weaker binding.

Values taken from ChEMBL document CHEMBL1151740, “Structurally constrained hybrid derivatives containing octahydrobenzo[g or f]quinoline moieties for dopamine D2 and D3 receptors: binding characterization at D2/D3 receptors and elucidation of a pharmacophore model” (J Med Chem, 2008).
